In this assay the target is E. coli DNA sliding clamp β (E. coli) (UniProt P0A988). In words: co-localization single-molecule spectroscopy (CoSMoS, TIRF); τ clamp loader complex carrying three Pol IIIcore (30 nM Pol IIIcore) with clamp on surface-held DNA; the row of Table 1 has 30 nM Pol IV as well.

Protein sequences, listed by entry. Tags and fused reporters are not part of them. Lines headed by an entry give the natural chain unless they say otherwise; changes in a name come on top.
UniProt P0A988: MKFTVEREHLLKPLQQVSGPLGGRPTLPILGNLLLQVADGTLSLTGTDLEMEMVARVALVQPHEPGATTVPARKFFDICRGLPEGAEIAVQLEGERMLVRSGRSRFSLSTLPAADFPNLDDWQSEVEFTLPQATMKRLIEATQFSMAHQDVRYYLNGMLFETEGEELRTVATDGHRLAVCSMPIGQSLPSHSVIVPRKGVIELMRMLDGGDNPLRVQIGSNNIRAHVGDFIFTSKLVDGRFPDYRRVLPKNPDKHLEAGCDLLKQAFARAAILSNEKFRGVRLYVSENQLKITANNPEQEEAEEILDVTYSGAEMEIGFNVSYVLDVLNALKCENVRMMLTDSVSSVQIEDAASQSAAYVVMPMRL

Here are results for one substance from PMC5731819.

For “τ-complex: τ clamp loader (τ3δ1δ'1) with three Pol IIIcore complexes (α, ε, θ), P06710 1-643; P28630 1-343; P28631 1-334; P10443 1-1160; P03007 1-243; P0ABS8 1-76”, the lifetime on clamp-DNA stood at 14.8 s.
